Measured values: ChEMBL document CHEMBL1126099, “Synthesis and biological characterization of alpha-(4-fluorophenyl)-4-(5-fluoro-2-pyrimidinyl)-1-piperazinebutanol and analogues as potential atypical antipsychotic agents” (J Med Chem, 1992)

Protein sequences, listed by entry. Tags and fused reporters are not part of them.
UniProt P61169, whole entry: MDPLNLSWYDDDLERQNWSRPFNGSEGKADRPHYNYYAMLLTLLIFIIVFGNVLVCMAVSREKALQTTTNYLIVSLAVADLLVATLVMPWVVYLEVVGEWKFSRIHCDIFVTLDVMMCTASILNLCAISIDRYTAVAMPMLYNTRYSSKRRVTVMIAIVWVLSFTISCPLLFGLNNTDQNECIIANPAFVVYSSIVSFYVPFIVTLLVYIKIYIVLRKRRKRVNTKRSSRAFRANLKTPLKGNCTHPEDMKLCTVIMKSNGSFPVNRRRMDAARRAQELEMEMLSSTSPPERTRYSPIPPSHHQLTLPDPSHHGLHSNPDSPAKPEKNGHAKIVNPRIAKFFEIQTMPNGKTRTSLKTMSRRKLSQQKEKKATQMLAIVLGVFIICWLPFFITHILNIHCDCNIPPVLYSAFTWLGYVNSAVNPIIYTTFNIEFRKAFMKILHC
UniProt Q9R0C9, whole entry: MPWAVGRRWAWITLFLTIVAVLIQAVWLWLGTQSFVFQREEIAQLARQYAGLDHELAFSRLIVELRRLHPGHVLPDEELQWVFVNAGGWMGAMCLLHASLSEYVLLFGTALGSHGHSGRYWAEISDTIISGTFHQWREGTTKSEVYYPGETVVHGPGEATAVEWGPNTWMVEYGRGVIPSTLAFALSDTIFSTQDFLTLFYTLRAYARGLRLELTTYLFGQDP

Key:
D(2) dopamine receptor = D(2) dopamine receptor (Rattus norvegicus, UniProt P61169); experiment: In vitro inhibitory against radioligand [3H]spiperone binding to rat striatal Dopamine receptor D2
[1] = target: Sigma non-opioid intracellular receptor 1 (Rattus norvegicus, UniProt Q9R0C9); experiment: Displacement of (+)-[3H]-3-PPP from rat cortical sigma site

Compound	IC50 (D(2) dopamine receptor) [nM]	IC50 [1] [nM]
O/N=C(\CCCN1CCN(c2ncc(F)cn2)CC1)c1ccc(F)cc1	1860	–
O=C(CCCN1CCN(c2ncc(Cl)cn2)CC1)c1ccc(F)cc1	–	57
O=C(CCCN1CCN(c2ncc(F)cn2)CC1)c1ccc(F)cc1	494	–
